# Measured values taken from US12145927B2 (BRISTOL-MYERS SQUIBB COMPANY, priority 2018, dated 2024).
# By UniProt entry, the sequences of proteins in these tests, tags left out.
# UniProt P14902, whole entry: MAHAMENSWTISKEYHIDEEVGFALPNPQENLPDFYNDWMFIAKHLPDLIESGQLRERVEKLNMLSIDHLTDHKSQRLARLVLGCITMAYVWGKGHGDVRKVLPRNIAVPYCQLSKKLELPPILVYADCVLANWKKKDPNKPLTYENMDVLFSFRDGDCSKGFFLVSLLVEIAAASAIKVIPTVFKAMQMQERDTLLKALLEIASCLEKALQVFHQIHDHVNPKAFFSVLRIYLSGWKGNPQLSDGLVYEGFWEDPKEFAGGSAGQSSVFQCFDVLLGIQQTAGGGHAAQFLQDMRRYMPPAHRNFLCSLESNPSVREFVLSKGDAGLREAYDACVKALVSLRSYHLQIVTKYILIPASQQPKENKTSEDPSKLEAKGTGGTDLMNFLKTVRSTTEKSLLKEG
# Target: human IDO1 (Homo sapiens, UniProt P14902)
# Assay: IDO inhibition assay in human IDO1/HEK293 cells (IDO1 HEK Human)
# Conditions: read-out: IDO1 HEK Human IC50; HEK293 cells stably expressing human IDO1; 20 hours incubation; absorbance at 490 nm after Ehrlich reagent
# Procedure: HEK293 cells were transfected with a pCDNA-based mammalian expression vector harboring human IDO1 cDNA (NM 002164.2) by electroporation. They were cultured in medium (DMEM with 10% FBS) containing 1 mg/ml G418 for two weeks. Clones of HEK293 cells that stably expressed human IDO1 protein were selected and expanded for IDO inhibition assay.
# The human IDO1/HEK293 cells were seeded at 10,000 cells per 50 μL per well with RPMI/phenol red free media contains 10% FBS in a 384-well black wall clear bottom tissue culture plate (Matrix Technologies LLC) 100 nL of certain concentration of compound was then added to each well using ECHO liquid handling systems. The cells were incubated for 20 hours in 37° C. incubator with 5% CO2.
# The compound treatments were stopped by adding trichloroacetic acid (Sigma-Aldrich) to a final concentration at 0.2%. The cell plate was further incubated at 50° C. for 30 minute. The equal volume supernatant (20 μL) and 0.2% (w/v) Ehrlich reagent (4-dimethylaminobenzaldehyde, Sigma-Aldrich) in glacial acetic acid were mixed in a new clear bottom 384-well plate. This plate was then incubated at RT for 30 minute. The absorbance at 490 nm was measured on Envision plate reader. […]
smiles,measurement,value
CC[C@H]1Oc2c(NC(=O)Nc3ccc(C)cc3)cc(-c3ccccc3-c3nnn[nH]3)cc2[C@@H]1c1ccccc1 (relative stereo),IC50,52 nM
